Where two headings read alike, the source gives them in different places.
Assays:
[1] = target: T1, human β2-AR (Homo sapiens, UniProt P07550); assay: van't Hoff analysis of binding thermodynamics; settings: for Quadrant in the TΔS° and ΔH° plot: classification after Borea et al.; for Intercept of van't Hoff relation / Slope of van't Hoff relation: linear regression, 4-37°C; for Intercept of van't Hoff relation / Slope of van't Hoff relation / ΔH° / ΔS°: ± SE
[2] = target: T1, human β2-AR; settings: for Hill's coefficient (n): ± SD; for Hill coefficients: all binding experiments, 4-37°C

| Compound | Quadrant in the TΔS° and ΔH° plot [1] | Intercept of van't Hoff relation [1] | Slope of van't Hoff relation [1] | ΔH° [1] [kcal/mol] | ΔS° [1] [kJ/mol/K] | Hill's coefficient (n) ([2]; 4°C) | Hill's coefficient (n) ([2]; 15°C) | Hill's coefficient (n) ([2]; 25°C) | Hill's coefficient (n) ([2]; 30°C) | Hill's coefficient (n) ([2]; 37°C) | Hill coefficients [2] |
| --- | --- | --- | --- | --- | --- | --- | --- | --- | --- | --- | --- |
| C[C@@H](Cc1ccc(O)cc1)NC[C@H](O)c1cc(O)cc(O)c1 [(R,S')-fenoterol] | purely entropy controlled process | 16.03 ± 0.68 | −856 ± 201 | 1.7 ± 0.406 | 0.133 ± 0.006 | 1.05 ± 0.18 | 1.08 ± 0.19 | 1.12 ± 0.11 | 1.16 ± 0.04 | 1.21 ± 0.14 | ~1.0 |
| C[C@H](Cc1ccc(O)cc1)NC[C@@H](O)c1cc(O)cc(O)c1 [(S,R')-fenoterol] | enthalpy-entropy driven process | 3.25 ± 1.59 | 2768 ± 469 | -5.5 ± 0.932 | 0.027 ± 0.013 | 1.62 ± 0.38 | 1.95 ± 0.04 | 1.63 ± 0.24 | 1.57 ± 0.31 | 1.63 ± 0.25 | greater than 1.0 |

Source: PMC2850566 (Biochemical pharmacology, 2010)
